# Values of other authors, collected in patent publication US20100278932A1, “POLYMER MICELLES CONTAINING SN-38 FOR THE TREATMENT OF CANCER” (Intezyne Technologies, Incorporated, priority 2009, published 2010).
# Test system: various cancer cells
# Conditions: in vitro; cited from earlier work
structure (smiles),measurement,value
"CCc1c2c(nc3ccc(O)cc13)-c1cc3c(c(=O)n1C2)COC(=O)[C@]3(O)CC [SN-38, 7-ethyl-10-hydroxycamptothecin]","cytotoxic activity, potency relative to CPT-11","up to 1,000 fold"
